Source: BindingDB's records for doi:10.1073/pnas.86.24.9762 (Oregon Health Sciences University, 1989)
“And” between values parts separate entries of the source, which are not always exact repeats. Equal values may be shown once.

Protein sequences, listed by entry. Tags and fused reporters are not part of them.
UniProt P61169, whole entry: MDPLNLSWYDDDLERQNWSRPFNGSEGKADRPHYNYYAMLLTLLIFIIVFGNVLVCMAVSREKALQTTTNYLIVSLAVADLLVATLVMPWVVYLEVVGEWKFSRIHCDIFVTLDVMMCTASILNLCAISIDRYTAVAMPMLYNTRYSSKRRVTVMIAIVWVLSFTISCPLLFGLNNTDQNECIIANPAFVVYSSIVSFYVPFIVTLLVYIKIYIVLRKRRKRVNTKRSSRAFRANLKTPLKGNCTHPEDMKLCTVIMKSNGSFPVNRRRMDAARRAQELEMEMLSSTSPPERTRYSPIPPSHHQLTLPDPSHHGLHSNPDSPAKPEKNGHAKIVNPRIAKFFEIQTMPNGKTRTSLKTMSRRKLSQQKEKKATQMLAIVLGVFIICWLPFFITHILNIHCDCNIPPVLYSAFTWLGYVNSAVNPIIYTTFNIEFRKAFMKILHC

Target: D(2) dopamine receptor (Rattus norvegicus, UniProt P61169)

Ki: 4.3 µM and 4.6 µM
Structure (SMILES): CN1CCN2c3ccccc3Cc3ccccc3[C@H]2C1 [MIANSERIN (+)]
